The values below come from ChEMBL document CHEMBL1136521, “Tetrahydroquinoline-based selective estrogen receptor modulators (SERMs)” (Bioorg Med Chem Lett, 2003).

Protein sequences, listed by entry. Tags and fused reporters are not part of them. Lines headed by an entry give the natural chain unless they say otherwise; changes in a name come on top.
UniProt Q92731: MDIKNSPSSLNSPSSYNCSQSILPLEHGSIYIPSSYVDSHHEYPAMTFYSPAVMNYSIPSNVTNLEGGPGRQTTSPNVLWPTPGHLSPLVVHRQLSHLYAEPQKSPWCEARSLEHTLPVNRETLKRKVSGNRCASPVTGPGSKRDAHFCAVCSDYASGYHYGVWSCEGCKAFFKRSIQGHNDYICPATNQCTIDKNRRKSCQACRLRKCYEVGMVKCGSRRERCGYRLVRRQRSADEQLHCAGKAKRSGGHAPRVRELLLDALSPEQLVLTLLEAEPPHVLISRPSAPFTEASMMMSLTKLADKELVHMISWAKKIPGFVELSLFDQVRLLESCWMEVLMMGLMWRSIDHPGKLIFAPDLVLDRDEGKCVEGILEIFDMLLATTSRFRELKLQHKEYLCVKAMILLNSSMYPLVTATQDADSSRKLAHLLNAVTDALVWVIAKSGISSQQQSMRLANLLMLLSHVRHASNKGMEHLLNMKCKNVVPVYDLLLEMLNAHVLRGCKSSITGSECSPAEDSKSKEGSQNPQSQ
UniProt P03372: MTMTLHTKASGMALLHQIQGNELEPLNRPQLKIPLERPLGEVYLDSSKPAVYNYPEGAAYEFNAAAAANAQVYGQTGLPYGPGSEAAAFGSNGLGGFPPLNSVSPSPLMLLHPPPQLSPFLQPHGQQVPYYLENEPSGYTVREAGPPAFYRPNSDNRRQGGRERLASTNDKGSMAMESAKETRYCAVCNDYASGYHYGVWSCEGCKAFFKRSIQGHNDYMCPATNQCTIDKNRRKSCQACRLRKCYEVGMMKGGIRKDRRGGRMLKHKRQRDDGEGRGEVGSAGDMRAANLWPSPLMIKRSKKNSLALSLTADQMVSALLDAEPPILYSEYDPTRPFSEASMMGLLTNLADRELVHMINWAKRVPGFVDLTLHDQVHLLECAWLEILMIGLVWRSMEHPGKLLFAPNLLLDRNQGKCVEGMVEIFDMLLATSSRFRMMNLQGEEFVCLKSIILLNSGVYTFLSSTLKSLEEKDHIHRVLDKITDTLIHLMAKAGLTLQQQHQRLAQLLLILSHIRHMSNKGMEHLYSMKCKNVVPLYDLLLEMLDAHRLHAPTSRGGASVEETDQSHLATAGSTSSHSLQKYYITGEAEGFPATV

Broadly, the IC50 is the concentration needed to halve the response being measured. A higher IC50 goes with weaker potency in that assay.

This experiment concerns the target Estrogen receptor (Homo sapiens, UniProt Q92731+P03372).

In turn, `O=C(c1ccc(OCCN2CCCCC2)cc1)N1c2ccc(O)cc2CCC1c1ccccc1` (stereo unspecified) had an IC50 of 620 nM.
